Ratio IC50 and Activity data for five compounds are collected here from ChEMBL document CHEMBL4251566 (Eur J Med Chem, 2018).

Each structure is given as a SMILES string.

The target in assay [1] is T1, Tyrosine-protein kinase JAK3 (Homo sapiens) (UniProt P52333).
T1 sequence (whole entry): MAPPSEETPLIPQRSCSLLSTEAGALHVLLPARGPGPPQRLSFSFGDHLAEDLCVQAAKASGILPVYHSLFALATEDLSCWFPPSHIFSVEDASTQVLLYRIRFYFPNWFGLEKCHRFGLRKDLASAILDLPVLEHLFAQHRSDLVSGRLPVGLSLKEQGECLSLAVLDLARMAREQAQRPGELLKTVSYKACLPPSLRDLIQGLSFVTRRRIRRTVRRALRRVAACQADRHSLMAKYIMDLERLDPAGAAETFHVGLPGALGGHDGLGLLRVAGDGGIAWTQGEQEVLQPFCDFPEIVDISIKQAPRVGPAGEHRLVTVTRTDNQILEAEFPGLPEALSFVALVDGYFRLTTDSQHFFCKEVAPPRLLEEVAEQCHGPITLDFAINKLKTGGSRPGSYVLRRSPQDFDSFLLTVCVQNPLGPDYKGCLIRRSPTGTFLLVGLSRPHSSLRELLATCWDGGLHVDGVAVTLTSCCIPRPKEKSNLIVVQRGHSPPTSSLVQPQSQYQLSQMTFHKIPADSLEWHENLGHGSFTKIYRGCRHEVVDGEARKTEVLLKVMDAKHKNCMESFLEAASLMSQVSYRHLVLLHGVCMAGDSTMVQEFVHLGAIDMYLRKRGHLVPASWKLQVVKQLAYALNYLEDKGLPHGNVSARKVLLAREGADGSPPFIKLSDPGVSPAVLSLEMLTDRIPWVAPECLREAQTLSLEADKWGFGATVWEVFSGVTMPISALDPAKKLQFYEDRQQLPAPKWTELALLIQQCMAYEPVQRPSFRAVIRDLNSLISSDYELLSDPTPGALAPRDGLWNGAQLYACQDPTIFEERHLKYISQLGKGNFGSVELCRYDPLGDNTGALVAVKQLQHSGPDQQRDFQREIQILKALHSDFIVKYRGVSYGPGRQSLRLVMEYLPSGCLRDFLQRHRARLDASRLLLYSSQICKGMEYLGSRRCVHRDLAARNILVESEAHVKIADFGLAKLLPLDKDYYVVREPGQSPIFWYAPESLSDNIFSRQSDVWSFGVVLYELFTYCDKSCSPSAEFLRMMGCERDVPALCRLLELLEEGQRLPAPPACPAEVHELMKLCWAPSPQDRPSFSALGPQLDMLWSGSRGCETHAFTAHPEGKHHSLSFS
Put plainly: Potency index, ratio of spebrutinib IC50 to compound IC50 for inhibition of recombinant N-terminal GST-tagged human JAK3 (781 to end residues) expressed in baculovirus infected Sf9 insect cells.

The subject of assay [2] is Ramos. Put plainly: Antiproliferative activity against human Ramos cells after 72 hrs by CCK-8 assay. Type of assay: functional, cell-based. (In general: Tetrazolium dyes change colour on reduction, which living cells bring about.)
The target of assay [3] is T1, Tyrosine-protein kinase JAK3 (Homo sapiens). Nature of the assay: Potency index, ratio of ibrutinib IC50 to compound IC50 for inhibition of recombinant N-terminal GST-tagged human JAK3 (781 to end residues) expressed in baculovirus infected Sf9 insect cells.

Regarding `C=CC(=O)Nc1cccc(Nc2nc(Nc3ccc(OCCCN4CCOCC4)cc3)ncc2Cl)c1`, the results for the Ratio IC50 in assay [1] and in assay [3] were 40 and 17, respectively. Besides, in assay [2], the Activity result was “Dose-dependent effect”.

`C=CC(=O)Nc1cccc(Nc2nc(Nc3ccc(OC)c(OCCCN4CCOCC4)c3)ncc2Cl)c1`: the Ratio IC50 in assay [1] stood at 40; in assay [3] it was 17.

With `C=CC(=O)Nc1cccc(Nc2nc(Nc3ccc(OC)c(OCCCN4CCOCC4)c3)ncc2F)c1`, the results for the Ratio IC50 in assay [1] and in assay [3] were 40 and 17, respectively.

Take `C=CC(=O)Nc1cccc(Nc2nc(Nc3ccc(OCCCN4CCN(CC)CC4)c(Cl)c3)ncc2Cl)c1`: the Ratio IC50 in assay [1] came out at 40; in assay [3], 17.

Regarding `C=CC(=O)Nc1cccc(Nc2nc(Nc3ccc(OCC(=O)N4CCOCC4)c(Cl)c3)ncc2Cl)c1`, the Activity result in assay [2] was “Dose-dependent effect”.
